From patent US10465009B2, “BCMA antigen binding proteins” (Amgen Inc., priority 2012, dated 2019)

Test system: H929 cells
Assay: Internalization assay (ArrayScan spot count) in H929 cells
Format: cell-based, human
Conditions: 10 μg/mL, 0-2 hours at 37° C.
Experimental: H929 myeloma tumor cells were cultured in growth medium (RPMI 1640, 10% FBS, MEM non-essential Amino Acids, HEPES, beta-mercaptoethanol, Pen/Strep, L-glutamine, sodium pyruvate, gentamicin). The H929 cells were collected into two 3-ml FACS tubes at approximately 500,000 cells per tube and washed once with assay medium (PBS containing 2% FBS). […] After incubation at 4° C. for 30 minutes, the cells were washed once with assay medium. A cocktail of anti-human IgG, Alexa 488 (Molecular Probes Inc., Eugene, Oreg. Catalog# A11013 at a 1:1,000 dilution in assay medium) and Hoechst 33342 (Molecular Probes Inc., Eugene, Oreg. Catalog# H21492 at a 1:2000 dilution in assay medium) was added to the cells. […] The internalization rate was quantified on an ArrayScan V^TI HCS reader (version 6, Cellomics, Thermo Fisher Scientific, Pittsburgh, Pa.) with BioApplication “Spot Detector” algorithm employing a 40× objective. At least 200 cells were counted in each well.
The output parameter algorithm of ArrayScan was “SpotCountPerObjectCh2.” The results were reported as total spot count per 200 cells. […] The spot counts were expressed as the mean±standard error of the mean (SEM) for duplicate measurements (n=2). […] The half-life for internalization was calculated using one-phase exponential association from GraphPad™ Prism. […]

B1: 2A1: parental fully human anti-huBCMA mAb, Vh SEQ ID NO:214, Vl SEQ ID NO:248; heavy chain SEQ ID NO:287, light chain 288 (antibody)
heavy: EVQLVESGGGLVKPGRSLRLSCTASGFTFGDYALSWFRQAPGKGLEWVGVSRSKAYGGTTDYAASVKGRFTISRDDSKSFAYLQMNSLKTEDTAVYYCCSSGYSSGWTPFDYWGQGTLVTVSSASTKGPSVFPLAPSSKSTSGGTAALGCLVKDYFPEPVTVSWNSGALTSGVHTFPAVLQSSGLYSLSSVVTVPSSSLGTQTYICNVNHKPSNTKVDKKV[omitted - human IgG1 Fc]
light: QSVLTQPPSASGTPGQRVTISCSGSSSNIGSNTVNWYQQLPGTAPKLLIFNYHQRPSGVPDRFSGSKSGSSASLAISGLQSEDEADYYCAAWDDSLNGWVFGGGTELTVLGQPKAAPSVTLFPPSSEELQANKATLVCLISDFYPGAVTVAWKADSSPVKAGVETTTPSKQSNNKYAASSYLSLTPEQWKSHRSYSCQVTHEGSTVEKTVAPTECS
- internalization following binding to BCMA on H929 cells: readily internalized
